This is an account of results in US20080311126A1, “Antisense Oligonucleotides Directed to Ribonucleotide Reducatase R2 and Uses Thereof in Combination Therapies for the Treatment of Cancer” (Genesense Technologies, Inc, priority 2004, published 2008).

For this assay, the system named is Caki-1 human renal carcinoma. Nature of the assay: Caki-1 renal tumour xenograft in SCID mice, SEQ ID NO:1 and interleukin-2. The conditions noted are these: Example 10; SEQ ID NO:1 10 mg/kg/48 hours i.v.; IL2 20000 or 5000 unit 2 times per day i.p. The format is in vivo. As for the experimental part: Cell line: Human renal carcinoma cell line (Caki-1) was grown as monolayer culture in Minimum essential medium (α-MEM) supplemented with 10% fetal bovine serum (FBS), 0.1 mM non-essential amino acid, 1.0 mM sodium pyruvate, 100 U/ml penicillin, 100 μg/ml streptomycin and 0.25 μg/ml amphotericin B and 2 mM L-alanyl-1-glutamine at 37° C. in an atmosphere of 5% CO2 in air. The tumour cells were routinely subcultured twice weekly by trypsin-EDTA treatment. The cells were harvested from subconfluent logarithmically growing culture by treatment with trypsin-EDTA and counted for tumour inoculation. […]
Groups and treatments: The following treatments were evaluated in this experiment: • 1. […]
Endpoints: The anti-tumour effects of SEQ ID NO:1 and IL-2, a standard immunotherapeutic for renal carcinoma, alone or in combination, on tmnour growth, was determined. Tumour sizes were measured every week day from day 7 after the tumour cell inoculation in two dimensions using a caliper, and the volume was expressed in mm^3 using the formula: V=0.5 a×b^2, where a and b are the long and short diameters of the tumour, respectively. Mean tumour volumes calculated from each measurement were then plotted in a standard graph to compare the anti-tumour efficacy to that of controls. A day after the last treatment, tumours were excised from the animals and their weights were measured.

interleukin-2 [IL-2]: the “anti-tumour efficacy (tumour volume, tumour weight)” value is “anti-tumour efficacy as monotherapies”.
